# How the values were obtained:
# [1] = tested on: WHO gonococcal reference strain Z (WHO Z); conditions: GCP broth, 10^5 CFU/mL, 24 h, 37°C, 5% CO2, lowest concentration reducing >=90% of bacteria vs non-AMP control, means of three independent experiments
# [2] = tested on: ME180 endocervical epithelial cells; conditions: 10 μg/mL AMP, 24 hours; three independent experiments
compound,measurement,setting,value
CC[C@H](C)[C@H](NC(=O)[C@H](CCCCN)NC(=O)[C@@H]1CCCN1C(=O)[C@@H](NC(=O)[C@H](CC(C)C)NC(=O)[C@H](C)NC(=O)[C@H](Cc1ccccc1)NC(=O)[C@H](Cc1ccccc1)NC(=O)CN)[C@@H](C)CC)C(=O)N[C@H](C(=O)N[C@@H](CO)C(=O)N[C@@H](CO)C(=O)N1CCC[C@H]1C(=O)N[C@@H](CC(C)C)C(=O)N[C@@H](Cc1ccccc1)C(=O)N[C@@H](CCCCN)C(=O)N[C@H](C(=O)N[C@@H](CC(C)C)C(=O)N[C@@H](CC(C)C)C(=O)N[C@@H](CO)C(=O)N[C@@H](C)C(=O)N[C@H](C(=O)NCC(=O)N[C@@H](CO)C(=O)N[C@@H](C)C(=O)N[C@@H](CC(C)C)C(=O)N[C@@H](CO)C(=O)N[C@@H](CO)C(=O)N[C@@H](CO)C(=O)NCC(=O)NCC(=O)N[C@@H](CCC(N)=O)C(=O)N[C@@H](CCC(=O)O)C(=O)O)C(C)C)[C@@H](C)O)[C@@H](C)CC [PB2],MIC of AMP,[1],20 µg/mL
same,Cell survival of ME180 cells vs non-treatment control (CCK-8),[2],No significant difference

# From publication PMC11056026, “The Evaluation of Teleost-Derived Antimicrobial Peptides Against Neisseria gonorrhoeae” (Cureus, 2024)
